Screening data (PubChem)
Nrf2 activator: activates Nrf2 signaling; AREc32 ARE-luciferase reporter (MCF7-derived line), luminescence, 24 h; Potency, µM (highest dose often 46.1 µM), inactives show top-dose activation, usual class: activators; hit rate 0.31% among 410,000; AID 624171; note: potency is the fitted concentration of half-maximal effect; % of control where 0% means no effect; nearly all actives have a fitted effect of over 65% in size
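Cells of the AREc32 ARE-luciferase line are plated in OPTI-MEM containing 5% FBS and left overnight at 37 deg C. Compounds are pinned in, incubation continues 24 hr, and firefly luciferase signal is then measured.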
miR-21 reporter: miR-21 reporter, rising signal | Potency, µM (highest dose often 38.3 µM), for inactives: at the highest dose reporter change, positive = more light | 340,000 tested, under 10 active | HeLa miR-21 FLuc reporter, luciferase, 48 h; active = well fitted rising curve with a large enough effect; inconclusive = small, poorly fitted or top-dose-only effect; inactive = no such curve, though single readings can be large or run the other way;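 note: % of control where 0% means no effect; miR-21 action dims this reporter so a rising signal means less miR-21 action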
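Luminescence from a firefly luciferase reporter carrying a miR-21 binding site downstream, stably expressed under a CMV promoter in HeLa cells that make miR-21 endogenously, reports miRNA modulation after 48 h compound exposure up to approximately 40uM final.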
A549 tox: A549 cytotoxicity, counter-screen for Nrf2 inhibitors; Potency, µM (top dose mostly 46 µM), without a hit: at the highest dose activity change, negative = cytotoxicity, actives largely listed as inhibitors; A549 ARE-Fluc cells, CellTiter-Fluor viability, 18-24 h; hit rate 0.16% among 390,000; note: potency is the fitted concentration of half-maximal effect; % is set by controls: 0 for no effect and ±100 for the full control effect
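A549 ARE_Fluc cells in 5% FBS OPTI-MEM were exposed to compounds in concentration-response for 18-24 h at 37 deg C. Viability was read by CellTiter-Fluor fluorescence (Ex 405/Em 525) after 30 min, before the luciferase read.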
TCR activator: activators of T cell receptors | Potency, µM (titrated, usually from 9.22 µM), inactives show at the top dose activation of IL-2 secretion, actives largely listed as activators | primary human leukocytes, anti-CD3, IL-2 HTRF, 48 h | 330,000 tested, under 10 active | AID 504894; note: % of control where 0% means no effect
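Primary human leukocytes receive a-CD3 beads and test compound and are incubated 48 hr. Secreted IL-2 is then assayed by HTRF, measuring 665nm acceptor emission after 320nm excitation of the europium donor.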
Nrf2 inh: inhibitors of Nrf2 signaling | Potency, µM (highest dose often 46 µM), without a hit: at the highest dose activity change, negative = inhibition, actives largely listed as inhibitors | AID 504444 | A549 ARE-Fluc reporter, luciferase luminescence, 18-24 h | hit rate 2.1% among 360,000; note: potency is the fitted concentration of half-maximal effect; % is set by controls: 0 for no effect and ±100 for the full control effect; nearly all actives have a fitted effect of over 60% in size
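A549 ARE_Fluc cells (5000/well, 5% FBS OPTI-MEM) pre-incubated 2 h, then treated with compounds 18-24 h at 37C/5% CO2 in concentration-response. CellTiter-Fluor viability read first; BugLite luciferase luminescence after 15 min at room temperature gives Nrf2 activity.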
ClpP mod: qHTS Assay for Activators of ClpP. purified B. subtilis ClpP, FRET peptide cleavage, 20 min. hit rate 1.9% among 340,000. Potency, µM (series often up to 57.5 µM), without a hit: at the highest dose activity change, negative = active. AID 651965, 2013. ATP-dependent Clp protease proteolytic subunit (Bacillus subtilis (strain 168)), P80244; active = well fitted falling curve with a large enough effect; inconclusive = small, poorly fitted or top-dose-only effect; inactive = no such curve, though single readings can be large or run the other way; note: potency is the fitted concentration of half-maximal effect; the source files actives as falling curves though it sought activators and does not explain the sign; nearly all actives have a fitted effect of over 65% in size
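Purified B. subtilis ClpP, 10 microg/mL final in Tris/HCl pH8 with KCl, BSA, glycerol and Tween-20, cleaved an Abz/nitrotyrosine-quenched decapeptide. Fluorescence (ex 320, em 430) was read at 0 and 20 min at room temperature. Delta was normalized to 5.8 microM ADEP and DMSO/no-enzyme controls.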
* = called active by the depositor; [ ] = another dose, or the depositor's remark. Rows were chosen to be rich in hits. Some 3.7% of all compounds tested hit in one or more screens of this group. Unless noted, calls come from the whole dose curve; as a rule, active = well fitted curve in the direction sought with a large enough effect; inconclusive = small, poorly fitted or top-dose-only effect, or another doubt; inactive = no such curve, though single readings can be large; an effect the other way counts as inactive or inconclusive.

For CCCOc1ccc(F)cc1-c1cc(C(=O)NCc2cccs2)[nH]n1 the results were Nrf2 activator -3.2% and ClpP mod -21.6%.
For Cc1ccc(Cn2ccc(NC(=O)c3cc(-c4cccc(Cl)c4)on3)n2)cc1 the results were Nrf2 activator -0.2%, miR-21 reporter -3.1%, A549 tox inconclusive, TCR activator 4.2%, Nrf2 inh 20.6µM* and ClpP mod 153.6%.
CC1CCc2onc(C(=O)N3CCN(c4ccc(Cl)cc4)CC3)c2C1 (configuration not stated) was read as Nrf2 activator -0.2%, miR-21 reporter 6.8%, A549 tox -4.0%, Nrf2 inh 20.6µM* and ClpP mod 2.2%.
`O=C(NC1CCCCCC1)C(=S)N1CCOCC1` gave Nrf2 activator -0.1%, miR-21 reporter -2.4%, A549 tox -4.2%, TCR activator 3.8%, Nrf2 inh 1.7% and ClpP mod 1.6%.
S=C(NC1CCCCC1)N1CCOCCOCCN(C(=S)NC2CCCCC2)CCOCCOCC1 was read as Nrf2 activator 0.4%, miR-21 reporter 18.4%, A549 tox inconclusive, TCR activator 1.8%, Nrf2 inh 16.4µM* and ClpP mod -1.2%.
For CCOC(=O)C1CCN(C(=O)Cn2ncc3c([nH]c4ccc(C)cc43)c2=O)CC1 the results were Nrf2 activator 0.0%, miR-21 reporter -2.9%, A549 tox -2.6%, Nrf2 inh 16.3% and ClpP mod -7.2%.
Screening O=C(O)c1ccc2ccc3ccccc3c2c1 returned Nrf2 activator -0.3%, A549 tox 19.8%, TCR activator -6.7%, Nrf2 inh -3.7% and ClpP mod -6.5%.
Screening O=C(O)c1ccc2cc[nH]c2c1 returned Nrf2 activator -0.1%, miR-21 reporter -1.1%, A549 tox -6.2%, TCR activator -0.6%, Nrf2 inh -11.1% and ClpP mod 15.8µM*.
For O=[N+]([O-])c1ccc2[nH]ccc2c1 the results were ClpP mod -0.2%.
For O=[N+]([O-])c1ccc2cc[nH]c2c1 the results were Nrf2 activator -0.6%, A549 tox -11.0%, TCR activator 1.2%, Nrf2 inh -4.9% and ClpP mod 17.8µM*.
Screening CCCN(CCC)S(=O)(=O)c1ccc(C(=O)OCCN2C(=O)c3cccc4c(N5CCOCC5)ccc(c34)C2=O)cc1 returned Nrf2 activator 0.4%, miR-21 reporter -4.1%, A549 tox inconclusive, TCR activator -3.2%[46.1 µM], Nrf2 inh -2.4% and ClpP mod 22.4µM*.
Screening COc1ccccc1C(=O)N1CCN(C(=O)c2oc3c(C)c(C)ccc3c2C)CC1 returned Nrf2 activator -0.8% and ClpP mod -0.6%.
COc1ccc(N2CCN(C(=O)c3cccc(-n4c(C)nc5cccnc54)c3)CC2)cc1 was read as Nrf2 activator -0.1%, miR-21 reporter 10.6%, A549 tox -0.6%, Nrf2 inh 16.1% and ClpP mod 0.4%.
For Cc1nc2cccnc2n1-c1cccc(C(=O)N2CCN(c3ccc(Cl)cc3)CC2)c1 the results were Nrf2 activator -0.9%, miR-21 reporter inconclusive, A549 tox -19.9%, Nrf2 inh 18.4µM* and ClpP mod -0.3%.
Cc1[nH]c2ccccc2c1C(=O)COC(=O)c1ccccc1SCC(=O)N1CCCC1 was read as ClpP mod 0.0%.
Screening O=C(CCC1N=C2c3ccccc3N=C(SCC(=O)Nc3cccc(Cl)c3)N2C1=O)NCc1ccco1 (configuration not stated) returned Nrf2 activator 5.5%, miR-21 reporter 2.1%, A549 tox -0.8%, Nrf2 inh -13.6% and ClpP mod -18.1%.

Of the compounds above, 2 contain an aryl methoxy group.
Screening COc1ccccc1C(=O)N1CCN(C(=O)c2oc3c(C)c(C)ccc3c2C)CC1 returned Nrf2 activator -0.8% and ClpP mod -0.6%.
COc1ccc(N2CCN(C(=O)c3cccc(-n4c(C)nc5cccnc54)c3)CC2)cc1 was read as Nrf2 activator -0.1%, miR-21 reporter 10.6%, A549 tox -0.6%, Nrf2 inh 16.1% and ClpP mod 0.4%.
